The nature of the data set: in vivo. Particulars: cynomolgus monkey, iv, 20 mg/kg.

In general, Vd refers to the apparent volume that relates the amount in the body to the concentration in plasma or blood. As to `N#C[C@@]1(c2ccc3c(N)ncnn23)O[C@H](CO)[C@@H](O)[C@H]1O` [GS-441524], the Vd at 0.5 h came out at 1.03 L/kg.

Values taken from ChEMBL document CHEMBL4823256, “Prodrugs of a 1'-CN-4-Aza-7,9-dideazaadenosine C-Nucleoside Leading to the Discovery of Remdesivir (GS-5734) as a Potent Inhibitor of Respiratory Syncytial Virus with Efficacy in the African Green Monkey Model of RSV” (J Med Chem, 2021).
